# Laboratory results from PMC8392292 (Biomedicines, 2021).
# Molecular target: SARS-CoV-2 RdRp (Severe acute respiratory syndrome coronavirus 2, UniProt P0DTD1)
# Assay: cell-based
# Details: HEK-293T, read-out: Inhibition % of RdRp Activity at Max. Dose
compound,measurement,value
"CO[C@H]1/C=C/O[C@@]2(C)Oc3c(C)c(O)c4c(O)c(c(/C=N/N5CCN(C)CC5)c(O)c4c3C2=O)NC(=O)/C(C)=C\C=C\[C@H](C)[C@H](O)[C@@H](C)[C@@H](O)[C@@H](C)[C@H](OC(C)=O)[C@@H]1C [Rifampin, rifampin]",inhibition at 100 µM,96.7%
